The values that follow come from IntAct's records for PubMed 30126976.

First the molecules themselves.
B1: Proline-rich protein 5 (Homo sapiens), P85299 (parent)
chain: MRTLRRLKFMSSPSLSDLGKREPAAAADERGTQQRRACANATWNSIHNGVIAVFQRKGLPDQELFSLNEGVRQLLKTELGSFFTEYLQNQLLTKGMVILRDKIRFYEGQKLLDSLAETWDFFFSDVLPMLQAIFYPVQGKEPSVRQLALLHFRNAITLSVKLEDALARAHARVPPAIVQMLLVLQGVHESRGVTEDYLRLETLVQKVVSPYLGTYGLHSSEGPFTHSCILEKRLLRRSRSGDVLAKNPVVRSKSYNTPLLNPVQEHEAEGAAAGGTSIRRHSVSEMTSCPEPQGFSDPPGQGPTGTFRSSPAPHSGPCPSRLYPTTQPPEQGLDPTRSSLPRSSPENLVDQILESVDSDSEGIFIDFGRGRGSGMSDLEGSGGRQSVV
B2: COP9 signalosome complex subunit 1 (Homo sapiens), Q13098 (parent)
chain: MPLPVQVFNLQGAVEPMQIDVDPQEDPQNAPDVNYVVENPSLDLEQYAASYSGLMRIERLQFIADHCPTLRVEALKMALSFVQRTFNVDMYEEIHRKLSEATRSSLRELQNAPDAIPESGVEPPALDTAWVEATRKKALLKLEKLDTDLKNYKGNSIKESIRRGHDDLGDHYLDCGDLSNALKCYSRARDYCTSAKHVINMCLNVIKVSVYLQNWSHVLSYVSKAESTPEIAEQRGERDSQTQAILTKLKCAAGLAELAARKYKQAAKCLLLASFDHCDFPELLSPSNVAIYGGLCALATFDRQELQRNVISSSSFKLFLELEPQVRDIIFKFYESKYASCLKMLDEMKDNLLLDMYLAPHVRTLYTQIRNRALIQYFSPYVSADMHRMAAAFNTTVAALEDELTQLILEGLISARVDSHSKILYARDVDQRSTTFEKSLLMGKEFQRRAKAMMLRAAVLRNQIHVKSPPREGSQGELTPANSQSRMSTNM

One test covers variants of B1. As to conditions: with dlg1_human DLG1, Q12959.
On to S381E, for which the “effect of a mutation on the interaction” value was “decreasing interaction strength”.

The variants in another test derive from B2. The settings on record: with scrib_human SCRIB.
For S488E, the “effect of a mutation on the interaction” value is “causing an interaction”.
